# Assay results taken from PubChem BioAssay AID720509 (The Scripps Research Institute Molecular Screening Center, 2013).
# By UniProt entry, the sequences of proteins in these tests, tags left out.
# UniProt P02675, whole entry, looked up: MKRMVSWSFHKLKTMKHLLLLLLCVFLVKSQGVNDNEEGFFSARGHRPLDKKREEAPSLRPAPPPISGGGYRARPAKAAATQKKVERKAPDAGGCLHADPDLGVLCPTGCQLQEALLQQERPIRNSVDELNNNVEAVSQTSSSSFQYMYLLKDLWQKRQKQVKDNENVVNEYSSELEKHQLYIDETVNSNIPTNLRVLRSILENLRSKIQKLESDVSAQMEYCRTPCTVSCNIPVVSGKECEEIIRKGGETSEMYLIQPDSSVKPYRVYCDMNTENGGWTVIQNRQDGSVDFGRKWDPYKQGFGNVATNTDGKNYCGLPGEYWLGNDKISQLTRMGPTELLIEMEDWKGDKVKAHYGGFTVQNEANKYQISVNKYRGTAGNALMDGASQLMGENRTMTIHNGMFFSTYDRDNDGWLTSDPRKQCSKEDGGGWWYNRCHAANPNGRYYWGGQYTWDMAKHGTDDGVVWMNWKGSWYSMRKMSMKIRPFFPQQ
# The entries are a selection whose mix differs from that of the whole data set. Some structures show a salt or complex split into parts, the way the source records it. Active and inactive are the calls of the source.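 The calls were made as follows: active = inhibition above a per-campaign cutoff: mean of compounds within control limits plus 3 SD (cut at about 15% in these data); inactive = the rest.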
# Target: Fibrinogen beta chain (Homo sapiens) (UniProt P02675)
# Experiment: small molecules displacing Tn6 from DD(E) complex – biochemical, fluorescence polarization, human fibrin, Tn6 probe, primary screen (AID 720509);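 also: 0% = median of all compound wells on the plate and 100% = blocking peptide control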
# Conditions: Fibrin DD(E) TRITC-Tn6 fluorescence polarization displacement; at 8.3 µM; active compounds read high
row,Compound,inhibition
1,COc1ccccc1-c1ccccn1.O=[N+]([O-])c1cc([N+](=O)[O-])c(O)c([N+](=O)[O-])c1,inactive: 1.29%
2,CCN(CC)CCCOC(=O)C(O)(c1ccccc1)c1ccccc1,inactive: -0.7%
3,COc1ccccc1OP(C)(=O)Nc1ccc(C)cc1 (centres undefined),inactive: -4.63%
4,Cc1ccc(NP(C)(=O)Oc2ccccc2)c(C)c1 (centres undefined),inactive: 5.24%
5,CCOC(=O)c1ccc(NP(C)(=O)Oc2ccccc2)cc1 (centres undefined),inactive: -2.43%
6,Cc1cc(C)cc(OP(C)(N)=O)c1 (centres undefined),inactive: 1%
7,COc1ccccc1OP(C)(=O)Nc1cc(Cl)ccc1C (centres undefined),inactive: -5.95%
8,COc1ccc(OP(C)(=O)Nc2cccc(F)c2)cc1 (centres undefined),inactive: 4.73%
9,O=[N+]([O-])c1cc([N+](=O)[O-])c(Nc2cccnc2)c([N+](=O)[O-])c1,inactive: 2.17%
10,O=[N+]([O-])c1ccc2c(c1)C=Nc1ccccc1O2,inactive: -6.87%
11,CC(C)(C)c1ccc(OP(C)(=O)Nc2ccc(SC(F)(F)F)cc2)cc1 (centres undefined),inactive: -0.34%
12,Cc1cccc(C)c1OP(C)(N)=O (centres undefined),inactive: 0.97%
13,CP(=S)(Nn1cnnc1)Oc1ccccc1 (centres undefined),inactive: 3.77%
14,CP(=O)(Nc1ccccc1Br)Oc1ccccc1 (centres undefined),inactive: -4.06%
15,COc1ccccc1OP(C)(=O)Nc1ccccc1 (centres undefined),inactive: 0.25%
16,O=[N+]([O-])c1cc([N+](=O)[O-])c(O)c([N+](=O)[O-])c1.c1ccc(Oc2ccncc2)cc1,inactive: -2.53%
17,CCOC(=O)c1ccc(NP(C)(=O)Oc2ccc(OC)cc2)cc1 (centres undefined),inactive: 5.28%
18,CCOP(C)(=S)SCC(=O)NC(C)C(=O)O (centres undefined),inactive: 7.95%
19,CP(=O)(Nc1ccccn1)Oc1ccc(Cl)cc1 (centres undefined),inactive: -3.74%
20,CP(=O)(Nc1ccc(SC(F)(F)F)cc1)Oc1ccc(Cl)cc1 (centres undefined),inactive: -2.79%
21,Cc1cccc(C)c1OP(C)(=O)Nc1ccc(SC(F)(F)F)cc1 (centres undefined),inactive: -4.05%
22,CP(=O)(Oc1ccccc1)OC(c1ccccc1)C(F)(F)F (centres undefined),inactive: 2.56%
23,CCc1ccc(OP(C)(=O)N2CCN(c3ccc([N+](=O)[O-])cc3)CC2)cc1 (centres undefined),inactive: -6.09%
24,CP(=O)(NC(=O)Nc1ccccc1)Oc1ccccc1 (centres undefined),inactive: 0.3%
25,Cc1cc(C)cc(OP(C)(=O)Nc2ccc(SC(F)(F)F)cc2)c1 (centres undefined),inactive: 8.81%

row,Compound,inhibition
1,O=[N+]([O-])c1cc([N+](=O)[O-])c(-c2cnn(-c3ccccc3)c2)c([N+](=O)[O-])c1,inactive: -3.15%
2,Cc1nc2ccc3ccccc3c2s1.O=[N+]([O-])c1cc([N+](=O)[O-])c(O)c([N+](=O)[O-])c1,inactive: -2.19%
3,O=[N+]([O-])c1cc([N+](=O)[O-])c(-n2nnc3ccccc32)c([N+](=O)[O-])c1,inactive: 1.83%
4,CN(Cc1cccnc1)C(=O)COc1ccc(Cl)c(Cl)c1.O=[N+]([O-])c1cc([N+](=O)[O-])c(O)c([N+](=O)[O-])c1,inactive: 2.23%
5,CN1CCCCC1COC(=O)C1(O)c2ccccc2CCc2ccccc21 (centres undefined),inactive: -0.57%
6,COc1ccccc1OP(C)(=O)Nc1c(C)cccc1C (centres undefined),inactive: 2.86%
7,COc1ccc(-c2ccccn2)cc1.O=[N+]([O-])c1cc([N+](=O)[O-])c(O)c([N+](=O)[O-])c1,inactive: -6.13%
8,CP(=O)(Nc1ccc(SC(F)(F)F)cc1)Oc1ccccc1 (centres undefined),inactive: 6.61%
9,CCCOc1ccc(NP(C)(=O)Oc2ccc(Cl)cc2)cc1 (centres undefined),inactive: 3.4%
10,O=[N+]([O-])c1cc([N+](=O)[O-])c(Nc2nnnn2CCO)c([N+](=O)[O-])c1,inactive: -1.13%
11,CCOC(=O)C(CC)C1=NC(C)(C)Cc2ccccc21.O=[N+]([O-])c1cc([N+](=O)[O-])c(O)c([N+](=O)[O-])c1 (centres undefined),inactive: 10.3%
12,CC1=NCCc2c1[nH]c1ccccc21.O=[N+]([O-])c1cc([N+](=O)[O-])c(O)c([N+](=O)[O-])c1,inactive: -2%
13,O=C(O)c1cccc(Nc2c([N+](=O)[O-])cc([N+](=O)[O-])cc2[N+](=O)[O-])c1,inactive: 7.51%
14,Cc1ccc(C)c(NP(C)(=O)Oc2ccccc2)c1 (centres undefined),inactive: 4.95%
15,CP(=O)(Nc1cccc(Br)c1)Oc1ccccc1 (centres undefined),inactive: -5.79%
16,Cc1cc(C)cc(OP(C)(=O)Nc2ccccn2)c1 (centres undefined),inactive: -5.67%
17,COc1ccccc1OP(C)(=O)Nc1cccc(Br)c1 (centres undefined),inactive: 1.96%
18,CCOC(=O)c1ccc(NP(C)(=O)Oc2cc(C)cc(C)c2)cc1 (centres undefined),inactive: 1.79%
19,Cc1cc(C)cc(OP(C)(=O)Nc2ccc(C)cc2C)c1 (centres undefined),inactive: -5.13%
20,O=C(OC1CN2CCC1CC2)c1ccc([N+](=O)[O-])cc1 (centres undefined),inactive: 3.22%
21,O=C(OCCN1CCN(CCOCc2ccccc2)CC1)C(O)(c1ccccc1)c1ccccc1,inactive: -3.64%
22,COc1ccc2c(c1O)-c1c(O)c(OC)cc3c1[C@H](C2)[N+](C)(C)CC3.O=[N+]([O-])c1cc([N+](=O)[O-])c([O-])c([N+](=O)[O-])c1[O-],inactive: 3.03%
23,O=[N+]([O-])c1cc([N+](=O)[O-])c(Nc2ccc(Cl)cc2)c([N+](=O)[O-])c1,inactive: 1.92%
24,CP(=O)(Nc1ccccc1F)Oc1ccccc1 (centres undefined),inactive: -2.4%
